# From PMC7723054
# The list shows a part of the results.
# T1: LIN28A (human?, UniProt Q9H9Z2 1-209)
# T1 sequence: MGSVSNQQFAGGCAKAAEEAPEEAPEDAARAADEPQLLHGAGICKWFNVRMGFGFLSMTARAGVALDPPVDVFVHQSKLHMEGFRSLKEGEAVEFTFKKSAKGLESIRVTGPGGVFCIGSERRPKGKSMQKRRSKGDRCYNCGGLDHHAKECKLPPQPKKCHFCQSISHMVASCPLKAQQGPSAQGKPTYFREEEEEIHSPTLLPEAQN
# T2: CIRBP (Homo sapiens, UniProt Q14011 1-172)
# T2 sequence: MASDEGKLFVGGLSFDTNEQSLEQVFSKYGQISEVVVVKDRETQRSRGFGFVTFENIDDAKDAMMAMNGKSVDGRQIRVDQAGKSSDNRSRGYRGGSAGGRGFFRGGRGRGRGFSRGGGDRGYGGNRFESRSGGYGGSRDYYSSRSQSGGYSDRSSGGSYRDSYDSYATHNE
# T3: DHX36 (Homo sapiens, UniProt Q9H2U1 1-1008)
# T3 sequence: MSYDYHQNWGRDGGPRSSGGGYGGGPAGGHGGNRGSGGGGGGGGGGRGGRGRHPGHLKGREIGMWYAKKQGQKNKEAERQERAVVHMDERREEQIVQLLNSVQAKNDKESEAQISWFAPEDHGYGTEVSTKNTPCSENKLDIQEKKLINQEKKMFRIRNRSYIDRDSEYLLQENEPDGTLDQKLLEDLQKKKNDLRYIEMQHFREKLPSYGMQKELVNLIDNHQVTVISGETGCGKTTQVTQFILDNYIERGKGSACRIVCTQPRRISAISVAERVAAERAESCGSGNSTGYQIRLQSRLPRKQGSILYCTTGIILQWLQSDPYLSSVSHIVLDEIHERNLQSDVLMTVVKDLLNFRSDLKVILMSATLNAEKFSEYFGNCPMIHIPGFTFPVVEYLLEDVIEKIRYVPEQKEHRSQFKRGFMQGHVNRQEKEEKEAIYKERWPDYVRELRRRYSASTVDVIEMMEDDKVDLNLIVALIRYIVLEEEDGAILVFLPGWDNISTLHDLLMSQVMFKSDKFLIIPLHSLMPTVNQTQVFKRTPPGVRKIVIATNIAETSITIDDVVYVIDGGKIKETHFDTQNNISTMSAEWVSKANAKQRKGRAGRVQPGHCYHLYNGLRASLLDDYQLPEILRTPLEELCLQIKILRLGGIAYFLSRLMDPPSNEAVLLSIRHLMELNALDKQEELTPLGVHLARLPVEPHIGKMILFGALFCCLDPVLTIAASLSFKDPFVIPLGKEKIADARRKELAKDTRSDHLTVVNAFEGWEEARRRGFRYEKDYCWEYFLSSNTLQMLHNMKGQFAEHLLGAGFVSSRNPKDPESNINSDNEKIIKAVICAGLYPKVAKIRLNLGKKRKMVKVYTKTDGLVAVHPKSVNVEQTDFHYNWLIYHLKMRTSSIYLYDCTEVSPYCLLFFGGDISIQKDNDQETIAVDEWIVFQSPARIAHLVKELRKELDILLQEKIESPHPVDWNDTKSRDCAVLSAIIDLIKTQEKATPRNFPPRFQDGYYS
# B1: hsa-mir-1283-2 (structured_RNA)
# RNA: GGGACGUAAUCGCAAGCCAAGCCUUAGAGGUGUACGAAGUUUCAGCUUCUGUUGUCUGAAAGAAAAGAAGCUGAAGCUUCGUGCAC
# B2: hsa-mir-377 (structured_RNA)
# RNA: GGGAAGGAGAGAGCCGUUUAGCCAAAUAGGUGUACGAAGUUUCAGCGAAUUCGCUUUAUUUAUGUUGAAUCGCUGAAGCUUCGUGCAC
# B3: hsa-mir-127 (structured_RNA)
# RNA: GGGAAACGGCGUGUAUAUCGUCAAUUCCGGUGUACGAAGUUUCAGCCUGAUUCAGAAAGAUCAUCGGGCUGAAGCUUCGUGCAC
# B4: hsa-mir-4279 (structured_RNA)
# RNA: GGGAACGGGACUCGUCACGCAUCAAUGAGGUGUACGAAGUUUCAGCGCAGAUUCUCUCUCUCGCUGAAGCUUCGUGCAC
# B5: hsa-mir-7113 (structured_RNA)
# RNA: GGGAAAAUGGUUCGCGUGAACACAAAGUGGUGUACGAAGUUUCAGCGAGGCCUCUUGCCAUGGCCUCCGCUGAAGCUUCGUGCAC
# B6: hsa-mir-3666 (structured_RNA)
# RNA: GGGACAAUGAGUCGGUUCUUGCGCGAGUGGUGUACGAAGUUUCAGCCGACUCCGUGGCAGAGUUCAGCUGAAGCUUCGUGCAC
# B7: hsa-mir-5008 (structured_RNA)
# RNA: GGGACAAAAUAUCGCAGCGUGGCAACCUGGUGUACGAAGUUUCAGCCAGUGGUGCCAUCUCCCCUGGCUGAAGCUUCGUGCAC
# B8: hsa-mir-4419b (structured_RNA)
# RNA: GGGAACUUGCGGUCGUACACUAUAAGUCGGUGUACGAAGUUUCAGCUCCCAGCCACUCUGGAGGGCUGAAGCUUCGUGCAC
# B9: hsa-mir-128-1 (structured_RNA)
# RNA: GGGAAAUAGAGAGCUGUUCCAACGAGAUGGUGUACGAAGUUUCAGCCUGAGAGGUUUACAUUUCUCGCUGAAGCUUCGUGCAC
# B10: hsa-mir-4315-1_4315-2 (structured_RNA)
# RNA: GGGAUUAAGACGGUGGUCUAACCCGCGUGGUGUACGAAGUUUCAGCGGACCCUCUCUCUACCUCUGCUGAAGCUUCGUGCAC
# B11: hsa-mir-4647 (structured_RNA)
# RNA: GGGACCUGACGAUCUAGAUGGAGUGCUCGGUGUACGAAGUUUCAGCGGAAAGGGGAUGCAGAGCCCUGCCGCUGAAGCUUCGUGCAC
# B12: hsa-mir-151a (structured_RNA)
# RNA: GGGAAAGGCGAUGCUUAGGCUUUUGCUUGGUGUACGAAGUUUCAGCCUAGUAUGUCUCAUCCCCUACUAGGCUGAAGCUUCGUGCAC
# B13: hsa-mir-3650 (structured_RNA)
# RNA: GGGAUUAUGAGGAGUCACUGCGCAUAUCGGUGUACGAAGUUUCAGCGUCCUGACUGCGUGCCAGGGGCGCUGAAGCUUCGUGCAC
# Target: T1, LIN28A
# Assay: FOREST: bead pull-down of RNA structure library v1, barcode microarray; U1A/LIN28A: 20 mM HEPES pH 7.5, 80 mM KCl, 20 mM NaCl, 10% glycerol, 2 mM DTT, 0.1 ug/uL BSA, 4 C; BG4/CIRBP/DHX36: 10 mM Tris-HCl pH 7.5, 100 mM KCl (or LiCl),; high values mean tight binding
row,Binder,binding signal
1,B1,-0.925 z-score
2,B2,-0.959 z-score
3,B3,-0.924 z-score
4,B4,-0.917 z-score
5,B5,-0.956 z-score
6,B6,-0.931 z-score
7,B7,-0.935 z-score
8,B8,-0.94 z-score
9,B9,-0.93 z-score
10,B10,-0.943 z-score
11,B11,-0.954 z-score
12,B12,-0.963 z-score
13,B13,-0.945 z-score

# Target: T2, CIRBP
# Assay: as above
row,Binder,binding signal
1,B1,-1.64 z-score
2,B2,0.825 z-score
3,B3,0.949 z-score
4,B4,0.303 z-score
5,B5,-0.302 z-score
6,B6,0.282 z-score
7,B7,-1.7 z-score
8,B8,-0.373 z-score
9,B9,-1.94 z-score
10,B10,-1.32 z-score
11,B11,0.104 z-score
12,B12,-0.311 z-score
13,B13,-0.0256 z-score

# Target: T3, DHX36
# Assay: as above
row,Binder,binding signal
1,B1,-0.772 z-score
2,B2,0.674 z-score
3,B3,-0.299 z-score
4,B4,-0.122 z-score
5,B5,-0.731 z-score
6,B6,-0.673 z-score
7,B7,-1.47 z-score
8,B8,-0.402 z-score
9,B9,-0.901 z-score
10,B10,-0.736 z-score
11,B11,-0.668 z-score
12,B12,-0.0582 z-score
13,B13,0.859 z-score
